Data from PubChem BioAssay AID2472 (National Center for Advancing Translational Sciences (NCATS), 2010).
Only a part is listed here, and it is no random draw. Active and inactive are the calls of the source. Rule as the data show it: active = activity change below about -30%; inactive = the rest, inconclusive results apart.
% is scaled to controls: 0 for no effect and ±100 for the full control effect.

Assay: qHTS Assay for Inhibitors of Fructose-1,6-bisphosphate Aldolase from Giardia Lamblia: Coupling assay counterscreen
Conditions: coupling enzyme system counterscreen, AmpLite Red fluorescence; at 58.2 µM (top of the series)
Description: MLPCN Grant: MH085699-01 Assay Provider: Osnat Herzberg, University of Maryland NCGC Assay Overview: The objective of this project is to obtain compounds that inhibit Giardia lamblia growth. G. lamblia is a human pathogen which afflicts impoverished nations; it is the most common cause of outbreaks of diarrhea in the United States. During the course of our study of potential drug targets in Giardia, we have identified the Class II (Zn2+ functions in electrophilic catalysis) fructose-1,6-bisphosphate aldolase (FBPA) as an excellent candidate for drug targeting. FBPA is a key glycolytic pathway enzyme, essential for G. lamblia survival. The human FBPA belongs to the Class I aldolases, which have a different substrate binding site structure and a radically different catalytic mechanism (employing a lysine-Schiff base intermediate). Therefore, affinity-based or mechanism-based inhibitors of the Giardia FBPA are expected not to interfere with the catalytic function of the human FBPA. […] This was done by coupling it to a diaphorase/resazurin/resorufin reaction that can be monitored by fluorescence (excitation, 544 nm; emission, 590 nm). Compounds identified in this screen will be further evaluated by coupling the […]/triose phosphate isomerase/NADH assay to a phenazine methosulfate/tetranitroblue tetrazolium color reaction. […]
With `CN(CCCl)CCCl` the activity change, negative = inhibition was inactive: -1.3%.
